Measurements published in ChEMBL document CHEMBL2218064, “Structure-activity relationship data for chemical series of antagonists of the P2X7 receptor (Supplementary Bioactivity Data for publication CHEMBL1157114)”.

The chains behind the UniProt entries cited, without tags or fusion partners. Where a name states a change or a piece, a line headed by the entry shows the natural chain unless it says otherwise.
UniProt Q99572: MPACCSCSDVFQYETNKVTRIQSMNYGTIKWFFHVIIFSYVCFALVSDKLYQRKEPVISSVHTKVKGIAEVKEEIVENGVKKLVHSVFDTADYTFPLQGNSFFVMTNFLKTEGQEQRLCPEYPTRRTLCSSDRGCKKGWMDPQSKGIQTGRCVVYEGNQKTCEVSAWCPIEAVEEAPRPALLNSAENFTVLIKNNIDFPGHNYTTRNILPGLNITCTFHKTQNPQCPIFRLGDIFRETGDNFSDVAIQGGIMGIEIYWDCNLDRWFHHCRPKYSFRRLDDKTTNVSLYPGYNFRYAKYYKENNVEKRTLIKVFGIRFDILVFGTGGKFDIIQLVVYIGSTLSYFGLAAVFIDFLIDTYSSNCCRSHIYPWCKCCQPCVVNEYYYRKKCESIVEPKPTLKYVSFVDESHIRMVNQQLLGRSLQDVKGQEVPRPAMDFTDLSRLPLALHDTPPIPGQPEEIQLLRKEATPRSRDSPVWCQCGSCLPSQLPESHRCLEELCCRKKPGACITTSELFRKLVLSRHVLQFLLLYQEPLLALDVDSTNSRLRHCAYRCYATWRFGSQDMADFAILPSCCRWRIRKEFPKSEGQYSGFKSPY

target: P2X purinoceptor 7 (Homo sapiens, UniProt Q99572); test: SUPPLEMENTARY: Inhibition of human P2X7 receptor assessed as inhibition of ethidium bromide accumulation. Same assay as CHEMBL1103860

| SMILES | IC50 |
| --- | --- |
| O=C(NCc1ccc(F)cc1Cl)[C@H]1CCC(=O)N1C1CCC1 | 794 nM |
| O=C(NCc1ccc(F)cc1Cl)[C@H]1CCC(=O)N1Cc1ccccc1 | 79.4 nM |
| CCN1C(=O)CC[C@H]1C(=O)NCc1cccc(Cl)c1 | 1000 nM |

Continued, values first:

| IC50 | SMILES |
| --- | --- |
| 79.4 nM | CCN1C(=O)CC[C@@H]1C(=O)NCc1cccc(Cl)c1Cl |
| 39.8 nM | CCN1C(=O)CC[C@@H]1C(=O)NCc1ccc(Cl)cc1Cl |
| 1.58 nM | CN1CC(C(=O)NCc2cccc(C(F)(F)F)c2Cl)N(C)C1=O (configuration not stated) |
| 10 nM | CCN1C(=O)CC[C@@H]1C(=O)NCc1cccc(C(F)(F)F)c1Cl |
